Measurements published in US20250145693A1, “HERV-K ANTIBODY, CELL, VACCINE, AND DRUG THERAPEUTICS” (priority 2021, published 2025).

Test system: 4T1pLVXKenv tumors
Assay: 4T1pLVXKenv combination treatment, Treg cells
Format: in vivo, mouse
Conditions: pLVXKenv vs pLVX; 6H5 once, IL2 for five days
Description: FIG. 23. RT-PCR was used to determine the expression of HERV-K env gene SU and TM in 4T1 or B16F10 cells stably transfected with pLVXKenv (full-length HERV-K SU+TM) or pLVX and analyzed for expression using HERV-K type 1 SU or TM primers. FIG. 23A. BALB/c mice were inoculated with 3×10^5 4T1pLVXKenv or 4T1pLVX cells on day 0. These mice were then treated: FIG. 23B with CpG (1.24 nmol), HERV-K SU protein (10 μg, 20 μg, and 20 μg), or CpG+ HERV-K SU protein on days 6, 13, and 19. Tumor weights were compared at week 4 post tumor cell inoculation; (FIG. 23C) with Aza (0.5 mg/kg) daily for five days in two weekly cycles, anti-PD-1 (200 μg per mouse every four days; four treatments), or Aza+anti-PD-1. Mice treated with PBS were used as controls, and tumor weights were compared among groups; and (FIG. 23D) with anti-HERV-K antibody (6H5; once) and with IL2 (for five days). […] (*=P<0.05, **=P<0.01, and ***=P<0.001).
HERV-K/checkpoint blockade, HERV-K/DNA hypomethylation and HERV-K/interleukin combined therapy. Murine mammary tumor cells (4T1) or melanoma cells (B16F10) were engineered to express HERV-K Env34 to produce syngeneic models of HERV-K crucial for studying the role of the anti-tumor immune response. […]

## IL-2: interleukin
  T regulatory (Treg) cells: Significantly decreased T regulatory (Treg) cells
